## Ab-95 light chain CDR variants: yeast mating affinities

From the AlphaSeq antibody data of Engelhart et al. 2022 (doi:10.1038/s41597-022-01779-4), copy in the FLAb collection.

Target peptide (SARS-CoV-2 spike, HR2 region): PDVDLGDISGINAS

Parent scFv Ab-95: VH joined to VL by a 15-residue (Gly4Ser)3 linker. Changes lie in the light chain CDRs alone.
VH: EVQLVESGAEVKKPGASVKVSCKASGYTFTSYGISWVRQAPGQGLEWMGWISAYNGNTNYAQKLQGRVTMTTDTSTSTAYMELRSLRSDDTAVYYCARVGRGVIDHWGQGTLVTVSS
VL: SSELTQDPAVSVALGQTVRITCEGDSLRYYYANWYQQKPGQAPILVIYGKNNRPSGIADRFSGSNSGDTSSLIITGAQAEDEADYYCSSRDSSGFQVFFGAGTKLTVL

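The parent was found by panning a naive human phage display library on the peptide. Library AAYL52 holds single substitutions and randomly drawn double and triple substitutions in the CDRs. The scFvs were displayed on barcoded MATa yeast, the peptide on MATalpha yeast. Pairs that bind mate more often; barcode pairs of the diploids are counted by sequencing. Each replicate has its own calibration line, from reference interactions of the BCL2 family. Each pool was mated in three replicate cultures.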

Changes read parent residue, position, new residue, counted from the first residue of the VL shown.
Values are log10 of the apparent Kd in nM; lower means stronger binding.
Replicates are averaged; those with no signal do not enter the mean.
Where no diploid with the target was found in that replicate, the entry reads "nd": below detection, most likely a poor binder, though not proof of it.
The list is sorted by this average, lowest first, undetected variants last.

Read-out 1.51, 1.13, 0.60 (mean 1.08; controls 0 of 9), from Y31D S92K Q96A.
Read-out 1.64, 1.52, 0.98 (mean 1.38; controls 4 of 9), from Y29G Q96H F98N.
Read-out 2.15, 2.10, 1.46 (mean 1.90; controls 4 of 9), from D25F Y31P F98N.
Read-out 2.39, nd, 2.11 (mean 2.25; controls 0 of 9), from N52Q D91E G94E.
Read-out 2.29, 2.36, 2.16 (mean 2.27; controls 3 of 9), from E23R Y29V S55D.
Read-out 2.26, 2.72, 2.06 (mean 2.35; controls 2 of 9), from N33H K50P N52Q.
Read-out 2.55, 2.98, 1.99 (mean 2.50; controls 3 of 9), from Y29N K50M G94S.
Read-out 2.34, 2.60, 2.60 (mean 2.51; controls 5 of 9), from S92L V97I.
Read-out 3.24, 2.83, 2.60 (mean 2.89; controls 1 of 9), from K50H S92G F98A.
Read-out 3.26, 4.05, 1.81 (mean 3.04; controls 5 of 9), from E23Y Y29F S93L.
Read-out 3.21, 3.04, 2.96 (mean 3.07; controls 4 of 9), from Y31K R53D S55A.
Read-out nd, nd, 3.09 (controls 4 of 9), from D25W A32Y S93A.
Read-out 3.28, 3.27, 2.89 (mean 3.15; controls 1 of 9), from G24H S26M K50G.
Read-out 3.58, 3.00, 2.92 (mean 3.17; controls 2 of 9), from S89A G94Y F98N.
Read-out 2.93, 3.07, 3.54 (mean 3.18; controls 0 of 9), from Y29V Y31A K50F.
Read-out nd, 3.47, 2.93 (mean 3.20; controls 1 of 9), from D25N Y29K P54M.
Read-out 3.84, 3.47, 2.32 (mean 3.21; controls 2 of 9), from E23R L27I F98Q.
Read-out 3.28, 3.47, 2.92 (mean 3.22; controls 7 of 9), from E23L R28V Y29K.
Read-out 3.66, 2.92, nd (mean 3.29; controls 3 of 9), from Y31N G49D R90G.
Read-out 3.33, 4.04, 2.76 (mean 3.38; controls 3 of 9), from E23G S88R F95S.
Read-out 3.60, 3.89, 2.79 (mean 3.43; controls 1 of 9), from G49E Q96C.
Read-out 3.19, 3.41, 3.86 (mean 3.49; controls 4 of 9), from E23K S26E L27K.
Read-out 3.13, nd, 3.88 (mean 3.50; controls 1 of 9), from D25N N51D S92L.
Read-out 4.27, 3.19, 3.63 (mean 3.70; controls 1 of 9), from N33R S93L.
Read-out 3.16, nd, 4.33 (mean 3.74; controls 6 of 9), from N51G D91E Q96W.
Read-out 2.96, 4.11, 4.16 (mean 3.74; controls 1 of 9), from N33A R90C.
Read-out 4.01, 3.07, 4.30 (mean 3.79; controls 3 of 9), from D25H N33P S92G.
Read-out 3.44, 4.16, nd (mean 3.80; controls 3 of 9), from N33L S55A Q96V.
Read-out nd, 3.90, nd (controls 2 of 9), from N52D S89K S93F.
Read-out 3.96, nd, nd (controls 2 of 9), from K50S P54E S92V.
Read-out nd, 3.98, 4.03 (mean 4.00; controls 3 of 9), from R28F Y30L S92F.
Read-out 4.70, 3.25, 4.40 (mean 4.12; controls 1 of 9), from Y31I K50T F98P.
Read-out 4.02, 4.34, nd (mean 4.18; controls 2 of 9), from N51P F95Q.
Read-out 3.79, 4.60, nd (mean 4.19; controls 2 of 9), from Y29N R53W S88E.
Read-out 4.68, 4.00, 4.06 (mean 4.25; controls 1 of 9), from S26Y K50M N52A.
Read-out 4.25, nd, nd (controls 2 of 9), from K50Y F95Y Q96W.
Read-out 4.20, 4.42, nd (mean 4.31; controls 3 of 9), from E23L A32F S89H.
Read-out nd, nd, 4.37 (controls 4 of 9), from E23C G49L N51P.
Read-out nd, 4.38, nd (controls 2 of 9), from D25H L27M F95C.
Read-out 4.01, 5.28, 4.28 (mean 4.52; controls 4 of 9), from N51F N52A S55K.
Read-out 5.69, 3.74, nd (mean 4.72; controls 3 of 9), from Q96M F98N.
Read-out nd, 5.35, nd (controls 1 of 9), from A32F N51K F98W.
Read-out nd, 5.77, nd (controls 4 of 9), from G49I S55C.
Read-out nd, nd, nd (controls 3 of 9), from A32V G49E R53N.
Read-out nd, nd, nd (controls 2 of 9), from L27V P54G S93H.
Read-out nd, nd, nd (controls 1 of 9), from L27H S55K G94E.
Read-out nd, nd, nd (controls 0 of 9), from N51H D91T.
Read-out nd, nd, nd (controls 0 of 9), from D25M R28F N33V.
Read-out nd, nd, nd (controls 3 of 9), from N51V R53K P54R.
Read-out nd, nd, nd (controls 2 of 9), from E23M L27D V97P.

For reference, the parent read 2.31 as the reference entry and 2.25 as a member of this library.
Nonspecific signal, from three strains lacking the peptide, appeared in 28% of pairings of library AAYL52, centred on 3.91 (5% of these signals below 2.90); values are not corrected for it. Also given: how often the same scFv was detected with the empty control strains.